Reference: ChEMBL document CHEMBL1926646, “Discovery and pharmacological characterization of N-[2-({2-[(2S)-2-cyanopyrrolidin-1-yl]-2-oxoethyl}amino)-2-methylpropyl]-2-methylpyrazolo[1,5-a]pyrimidine-6-carboxamide hydrochloride (anagliptin hydrochloride salt) as a potent and selective DPP-IV inhibitor” (Bioorg Med Chem, 2011)

Chains of the proteins cited; added tags and fusions are not shown.
UniProt P27487, whole entry: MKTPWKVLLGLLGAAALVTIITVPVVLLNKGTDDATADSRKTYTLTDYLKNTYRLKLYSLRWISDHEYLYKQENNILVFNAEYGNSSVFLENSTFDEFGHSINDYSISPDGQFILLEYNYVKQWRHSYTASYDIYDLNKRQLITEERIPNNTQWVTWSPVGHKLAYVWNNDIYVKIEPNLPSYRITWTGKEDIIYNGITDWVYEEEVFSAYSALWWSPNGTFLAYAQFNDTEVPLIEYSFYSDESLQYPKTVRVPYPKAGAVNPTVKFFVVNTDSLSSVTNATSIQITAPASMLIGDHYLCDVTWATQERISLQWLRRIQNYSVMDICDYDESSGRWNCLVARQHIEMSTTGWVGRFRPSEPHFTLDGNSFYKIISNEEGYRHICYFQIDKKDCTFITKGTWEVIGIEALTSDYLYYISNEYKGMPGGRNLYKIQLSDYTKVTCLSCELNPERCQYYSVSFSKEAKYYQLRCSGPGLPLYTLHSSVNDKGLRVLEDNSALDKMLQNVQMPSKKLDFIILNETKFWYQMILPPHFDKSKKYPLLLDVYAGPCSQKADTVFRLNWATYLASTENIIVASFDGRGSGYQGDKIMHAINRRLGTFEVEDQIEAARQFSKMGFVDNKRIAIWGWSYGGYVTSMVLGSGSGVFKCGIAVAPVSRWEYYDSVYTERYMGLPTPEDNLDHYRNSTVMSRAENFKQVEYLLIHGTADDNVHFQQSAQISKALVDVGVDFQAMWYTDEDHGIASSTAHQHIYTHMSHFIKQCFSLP

What was measured:
Dipeptidyl peptidase 4 = Dipeptidyl peptidase 4 (Homo sapiens, UniProt P27487)
Prolyl endopeptidase FAP = biological target: T1, Prolyl endopeptidase FAP (Homo sapiens, UniProt Q12884); assay: biochemical
T1 sequence (Q12884 whole entry): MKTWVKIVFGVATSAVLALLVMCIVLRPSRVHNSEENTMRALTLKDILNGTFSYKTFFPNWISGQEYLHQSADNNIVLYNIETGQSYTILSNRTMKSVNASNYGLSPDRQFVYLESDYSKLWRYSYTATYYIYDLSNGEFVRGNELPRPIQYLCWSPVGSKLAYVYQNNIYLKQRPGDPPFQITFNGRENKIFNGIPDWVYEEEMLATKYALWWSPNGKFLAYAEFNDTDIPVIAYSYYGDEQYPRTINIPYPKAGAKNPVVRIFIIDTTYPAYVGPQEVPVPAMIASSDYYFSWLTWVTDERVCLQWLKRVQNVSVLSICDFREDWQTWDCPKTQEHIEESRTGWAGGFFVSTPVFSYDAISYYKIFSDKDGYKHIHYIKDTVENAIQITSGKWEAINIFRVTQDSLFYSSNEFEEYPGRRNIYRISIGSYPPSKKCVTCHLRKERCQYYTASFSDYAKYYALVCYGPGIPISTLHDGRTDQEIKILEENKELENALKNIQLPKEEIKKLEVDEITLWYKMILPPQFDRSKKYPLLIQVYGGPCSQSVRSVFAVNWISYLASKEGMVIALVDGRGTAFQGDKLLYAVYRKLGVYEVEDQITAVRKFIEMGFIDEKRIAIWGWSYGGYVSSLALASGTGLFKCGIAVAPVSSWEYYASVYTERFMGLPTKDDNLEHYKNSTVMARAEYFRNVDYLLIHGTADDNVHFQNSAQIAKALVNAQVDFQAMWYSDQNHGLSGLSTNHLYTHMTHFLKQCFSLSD

SMILES	IC50 (Dipeptidyl peptidase 4)	IC50 (Prolyl endopeptidase FAP)
Cc1cc2ncc(C(=O)NCC(C)(C)NCC(=O)N3CCC[C@H]3C#N)cn2n1.Cl [ANAGLIPTIN HYDROCHLORIDE]	0.0038 µM	
Cc1cc2ncc(C(=O)NCC(C)(C)NCC(=O)N3CCC[C@H]3C#N)cn2n1 [ANAGLIPTIN]		72.7 µM
